Biological target: RNAP holoenzyme (bacterial (E. coli S1030 host cells))

In the case of ω-Zif268-DBD fusion protein, the pIII-luciferase production (luminescence, one-hybrid reporter in E. coli) is reported as greater than 10 fold.

— US20190256842A1
